Patent publication US9522908B2, “Ezrin inhibitors and methods of making and using” (Georgetown University, priority 2010, dated 2016)

Protein sequences, listed by entry. Tags and fused reporters are not part of them.
UniProt P26040, whole entry: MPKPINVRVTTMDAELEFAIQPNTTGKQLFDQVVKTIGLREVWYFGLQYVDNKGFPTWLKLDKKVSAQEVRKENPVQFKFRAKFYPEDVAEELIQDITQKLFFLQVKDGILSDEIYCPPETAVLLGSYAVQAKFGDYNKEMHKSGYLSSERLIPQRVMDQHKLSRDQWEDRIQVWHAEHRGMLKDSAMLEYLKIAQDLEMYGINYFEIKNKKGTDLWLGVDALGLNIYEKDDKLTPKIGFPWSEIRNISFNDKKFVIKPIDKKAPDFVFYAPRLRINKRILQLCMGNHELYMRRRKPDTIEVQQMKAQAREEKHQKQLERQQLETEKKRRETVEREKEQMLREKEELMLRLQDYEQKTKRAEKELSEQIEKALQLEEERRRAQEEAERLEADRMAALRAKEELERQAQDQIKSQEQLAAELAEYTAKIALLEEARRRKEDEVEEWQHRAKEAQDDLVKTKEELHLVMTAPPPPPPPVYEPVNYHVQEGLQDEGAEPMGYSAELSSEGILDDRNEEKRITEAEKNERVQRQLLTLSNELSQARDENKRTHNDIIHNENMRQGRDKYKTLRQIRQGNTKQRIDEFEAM
UniProt P41743, whole entry: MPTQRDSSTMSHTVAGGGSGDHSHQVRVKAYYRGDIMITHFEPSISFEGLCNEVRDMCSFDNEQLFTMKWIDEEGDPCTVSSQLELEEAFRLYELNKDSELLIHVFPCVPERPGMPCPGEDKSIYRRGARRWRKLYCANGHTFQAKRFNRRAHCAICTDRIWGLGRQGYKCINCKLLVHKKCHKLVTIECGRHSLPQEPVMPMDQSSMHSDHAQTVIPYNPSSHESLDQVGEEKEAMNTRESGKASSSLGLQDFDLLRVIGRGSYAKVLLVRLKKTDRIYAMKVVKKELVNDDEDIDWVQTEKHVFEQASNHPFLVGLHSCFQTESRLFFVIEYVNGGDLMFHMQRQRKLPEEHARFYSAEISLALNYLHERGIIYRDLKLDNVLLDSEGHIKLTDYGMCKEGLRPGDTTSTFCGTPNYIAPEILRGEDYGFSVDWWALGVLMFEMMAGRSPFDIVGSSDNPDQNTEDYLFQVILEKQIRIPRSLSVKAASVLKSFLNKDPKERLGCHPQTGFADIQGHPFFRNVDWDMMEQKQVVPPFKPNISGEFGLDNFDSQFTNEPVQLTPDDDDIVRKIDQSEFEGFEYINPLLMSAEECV

Key:
PKC,τ, PKC,α and PKC,γ = assay: Radioactive in vitro kinase assay of PKC isoforms with nonspecific substrate; settings: doses tested maximum 100 μM
Protocol: (§1) FIG. 2 illustrates NSC305787 and NSC668394 inhibit ezrin T567 phosphorylation. (A) K7M2 metastatic OS cell line was treated with NSC305787 (10 μM) and NSC668394 (10 μM) for 6 hours. NSC305787 and NSC668394 inhibited phosphorylation of endogenous ezrin protein and its interaction with actin without altering cellular ezrin protein levels (B and C). The effect of NSC305787 and NSC668394 on recombinant ezrin phosphorylation by recombinant PKC, was tested in an in vitro kinase assay. Phoshorylation of ezrin was detected by a phosphospecific antibody following PAGE and immunoblotting. Experiments were repeated three times and densitometric analysis of bands was used for calculation of % inhibition (graphs). Error bars represents s.d. from three independent experiments. Kinase activities of PKC,τ, PKC,α and PKC,γ were also evaluated with a nonspecific substrate in the presence of NSC305787 and NSC668394 by a radioactive in vitro kinase assay. Data analysis was done by using a sigmoidal dose-response equation where log EC50 for each curve with the ezrin substrate and the non-specific substrate were compared to each other (P=0.0118 for NSC305787 and P=0.0084 for NSC668394).
(§2) 500 ng of recombinant ezrin protein in kinase assay mix (200 μM ATP) was incubated with the compounds at 1-100 μM concentrations for 15 minutes on ice, then 50 ng PKC,τ (Millipore, Billerica, Mass.) was added. […]

[1] = tested on: K7M2, K12 and HUVEC cells; assay: Toxicity to cells at invasion assay concentrations; settings: 1 μM and 10 μM; data not shown
Protocol: Chemotaxis experiments were performed in 96 well Boyden chamber as described previously (Chen, K., et al., Pediatr. Blood Cancer, 51, 349-355 (2008)). To measure effect of compounds on cellular toxicity, WST viability assay (Roche, Indianapolis, Ind.) was performed in parallel to chemotaxis experiments.

[2] = molecular target: ezrin T567 phosphorylation by PKC,τ (Mus musculus, UniProt P26040); assay: In vitro kinase assay: recombinant ezrin T567 phosphorylation by PKC,τ; settings: read-out: IC50, phosphorylation of ezrin by PKC,τ, phosphospecific antibody immunoblot densitometry
Protocol: as §1, §2

K7M2 cells = assay: Invasion of HUVEC monolayer by K7M2 cells (ECIS, xCELLigence); settings: 1 μM and 10 μM, vs control 1% DMSO
Protocol: (§3) FIG. 3 illustrates NSC305787 and NSC668394 inhibit ezrin mediated invasion of OS cells. (A) Endogenous ezrin protein levels in K12 and K7M2 cells are shown. Equal loading is determined by blotting with an actin antibody. Both NSC305787 (B) and NSC668394 (C) at 1 μM and 10 μM concentrations inhibited invasion of K7M2 cells through a HUVEC monolayer when compared to the control (1% DMSO). […] Error bars represent standard deviation from duplicate data points. The experiments were performed in duplicates. Cell index is a measurement parameter with no units. In this assay a decrease in cell index represents invasion of HUVEC layer by OS cells. It is measured according to the following formula: Cell index=((Rt−R0)/F where, Rt is resistance at time point t, R0 is background resistance (measured with media alone, no cells), and F is frequency at which measurement is taken (10 kHz).
(§4) The anti-invasive potential of NSC305787 and NSC668394 were evaluated by using electric cell impedance sensing (ECIS) on a Roche xCELLigence system (Roche, Indianapolis, Ind.). Briefly, HUVEC cells (25,000/well) were seeded in a 96-well plate in EGM-2 media (Lonza, Basel, CH). […] This time point was accepted as 0 hr of treatment and invasion was monitored during the following 6 hrs by measuring changes in resistance at the cell-electrode interphase.

[3] = tested on: K7M2 metastatic OS tumor cells; assay: In vivo experimental lung metastasis model, K7M2 cells; design: species or system mice
Protocol: (§5) FIG. 6 illustrates NSC305787 and NSC668394 inhibit in vivo OS metastatic growth in lungs. (A) K7M2 metastatic OS tumor cells (1×10^6) were injected via tail vein. Vehicle (1% DMSO), NSC305787 (240 μg/kg) and NSC668394 (226 μg/kg) were injected 5 days a week intraperitoneally. Kaplan-Meier survival curves show percent survival for NSC305787 and NSC668394 treatment over time. Median survival of vehicle, NSC305787 and NSC668394 treated K7M2 cells were 28.5, 50, and 49 days after tumor cell injection. […] (B) Fluorescence pictures of whole lungs are given. There is a significant decrease in the number of the GFP expressing metastatic foci in the lung tissues of the NSC305787 and NSC668394 treated groups. (C) GFP expressing ezrin independent MNNG, human OS cells were injected to mice and treated with vehicle (1% DMSO), NSC305787 (240 μg/kg) and NSC668394 (226 μg/kg). Survival of each group is not different probably because MNNG is an ezrin independent cell line. Median survival of vehicle, NSC305787 and NSC668394 treated MNNG cells were 50.5, 49, and 48.5 days after tumor cell injection. (D) Fluorescent images of the lung tissues of this group are given. There is not a significant difference in the number of the GFP expressing metastatic foci in the lung tissues of the NSC305787 and NSC668394 treated groups. […]

[4] = tested on: Gli reporter (hedgehog pathway); assay: Gli reporter assays; assay type: cell-based, mammalian cell lines; settings: data not shown
[5] = molecular target: ezrin / poly-A-binding protein 1 (PABP1) interaction (Mus musculus, UniProt P26040); assay: Ezrin-PABP1 interaction by immunoprecipitation and western blot; settings: cells treated 60 min prior to immunoprecipitation
Protocol: (A) Total cell lysates from K7M2 osteosarcoma cells were immunoprecipitated by using an anti-ezrin antibody. As a control, non-specific total IgG was used. Immunoprecipitates were run on SDS-PAGE and Western Blot was performed using anti-ezrin (lower panel) and anti-PABP1 (upper panel) antibodies. PABP1 protein was detected in immunoprecipitates of ezrin, suggetsing that these two proteins interact with each other in a protein complex. (B) Ezrin-PABP1 interaction was also evaluated in an ELISA experiment where recombinant ezrin protein was immmobilized on surface and total cell lysates from osteosarcoma cells were applied on top. Amount of PABP1 binding to ezrin on the surface was detected by a anti-PABP1 primary antibody followed by enzyme linked secondary antibody. (C) Immunoprecipitation and western experiment was prepared as described in panel A. Cells were treated with NSC305787 (compound 8) and NSC668394 (compound 16) for 60 min prior to immunoprecipitation. Both NSC305787 and NSC668394 inhibited interaction of PABP1 with ezrin

ezrin in K7M2 OS cells = ezrin in K7M2 OS cells (Mus musculus, UniProt P26040); assay: Endogenous ezrin T567 phosphorylation and actin binding in K7M2 cells (immunoprecipitation/immunoblot); settings: 10 μM
Protocol: (§6) K7M2 cells that were treated with embodied compounds and resolved protein lysates were immunoblotted for co-precipitated phosphorylated ezrin (TOP), or actin (BOTTOM). 4.0×10^6 K7M2 cells were plated in 15 cm dishes. After 24 h, the plates are at least 70% confluent. Media was removed and 10 μM of compound in SF DMEM was added. After the ezrin protein was incubated for 5 h with the indicated compound, the plates were lysed with PLB containing Calyculin A. 2 μL of Ezrin Ab and 10 μM of the compound (prepared in PLB) were added to the lysate and allowed to incubate overnight (14 h), followed by tumbling with Agarose IgG beads. The mixture was run on 10% acrylamide gel and transferred overnight.
as §6, with “removed and either 7 μM or 10 μM” for “removed and 10 μM”
For analysis of actin binding to FL and mutant ezrin, K12 cell lysate was incubated with recombinant ezrin protein, then subjected to immunoprecipitation with ezrin antibody (Sigma, St. Louis, Mo.) and immunoblotted with actin antibody (Santa Cruz, Santa Cruz, Calif.). For analysis of inhibition of small molecules on ezrin phosphorylation and actin binding, K7M2 cell lysates were treated with compounds at 10 μM concentration for 6 hours, followed by immunoprecipitation with the ezrin antibody and immunoblotted with phospho-ezrin (Cell Signaling, Danvers, Mass.), actin and ezrin antibodies.

[6] = tested on: GFP expressing K7M2 OS cells; assay: Pulmonary metastasis assay (PuMA), lung organ culture; settings: 10 μM
Protocol: FIG. 5 illustrates NSC305787 and NSC668394 inhibit OS metastatic growth in lung organ culture. GFP expressing K7M2 OS cells (2×10^5) were injected to tail vein of female BALB/c mice. Within 15 min of tumor cells injection, mice were euthanized and lungs were injected with a mixed agarose/medium solution and then were removed. Complete transverse sections (1-2 mm in thickness) were made from each lobe and 4-5 lung sections were placed on a single 1.5×0.7 cm sterile Gelfoam section. Lung sections were incubated at 37° C. in humidified conditions of 5% CO2. Fresh medium or small molecules (10 μM) were replaced every other day. (A) Quantitation of the fluorescence signal from NSC305787 (10 μM) and NSC668394 (10 μM) treated organ cultures over time. Metastatic burden was quantified by measuring the fluorescent area of metastatic cells in each lung section at each time point and was expressed as mean fluorescent area (mean fluorescent area of each lung section over 4 lung sections). Mean fluorescent area was normalized to 100 pixels for day 0 to allow quantitative evaluation of metastatic progression over time. Data are represented as mean .s.d. from three independent experiments. (B) Fluorescence pictures of a representative culture treated with 10 μM NSC305787 and 10 μM NSC668394 are given on the right panel. […]

K12 cells = assay: Invasion of HUVEC monolayer by K12 cells (ECIS, xCELLigence)
Protocol: as §3, §4

MNNG, human OS cells = assay: In vivo experimental lung metastasis model, ezrin independent MNNG cells; design: species or system mice
Protocol: as §5

zebrafish embryos = assay: Zebrafish embryo development assay; settings: 10 μM
Protocol: Animals. Zebrafish (Danio rerio) were raised, maintained and crossed as described before (Westerfield, M. University of Oregon Press, Eugene. Or., 1993). Development of embryos was studied at 28° C. and staging was determined by morphological characteristics (Kimmel, C. B., et al., Dev. Dyn. 203, 253-310 (1995)).
A translation blocking anti-ezrin morpholino oligonucleotide (MO), described and validated by Link et al. (Link, V., et al., J. Cell Sci., 119, 2073-2083 (2006)), MO1, 5′-[…] (SEQ ID NO:1), was synthesized by Gene-Tools, LCC (Philomath, Oreg.). MOs were microinjected into one to four cell stage embryos.
Zebrafish embryos were arrayed, three per well, in 96-well plates. Compounds were added at 1-33 μM concentrations. Embryos were observed, and photographed, at 70% epiboly, 24-28 hours post fertilization (hpf) and 48 hpf.

PKC,τ = PKC,τ (Homo sapiens, UniProt P41743); assay: SPR direct binding to PKC,τ (Biacore); settings: read-out: KD, binding to PKC,τ, data not shown

O=C1C=C(NCCc2cc(Br)c(O)c(Br)c2)C(=O)c2ncccc21
inhibition of PKC activity (PKC,τ, PKC,α and PKC,γ): did not show any significant inhibition | toxicity to K7M2, K12 and HUVEC cells [1]: not toxic | IC50 [2]: 7.81 µM | invasion of K7M2 cells through HUVEC monolayer (K7M2 cells): inhibited invasion | number of GFP expressing metastatic foci in lung tissues ([3]; K7M2 cells): significant decrease | median survival after tumor cell injection ([3]; K7M2 cells by tail vein, i.p. 5 days a week, vehicle 28.5 days): 49 days | inhibition in Gli reporter assays [4]: did not observe any significant inhibition | interaction of PABP1 with ezrin [5]: inhibited | cellular ezrin protein levels (ezrin in K7M2 OS cells): without altering cellular ezrin protein levels | T567 phosphorylation of endogenous ezrin (ezrin in K7M2 OS cells; 6 hours): inhibited | actin binding of ezrin (ezrin in K7M2 OS cells; 6 hours): inhibited | lung metastasis of K7M2 cells in lung organ culture (GFP fluorescence) [6]: significantly inhibited | invasion of K12 cells (K12 cells; 1 μM): did not have any effect | invasion of K12 cells (K12 cells; 10 μM): inhibited invasion by K12 cells slightly | number of GFP expressing metastatic foci in lung tissues (MNNG, human OS cells; MNNG cells): not a significant difference | median survival after tumor cell injection (MNNG, human OS cells; MNNG cells by tail vein, i.p. 5 days a week, vehicle 50.5 days): 48.5 days | cycloptic embryos at 28 hpf (zebrafish embryos): 98% | Kd (PKC,τ): 160 µM
